# Test results taken from ChEMBL document CHEMBL1131860.
# By UniProt entry, the sequences of proteins in these tests, tags left out.
# UniProt P97266, whole entry: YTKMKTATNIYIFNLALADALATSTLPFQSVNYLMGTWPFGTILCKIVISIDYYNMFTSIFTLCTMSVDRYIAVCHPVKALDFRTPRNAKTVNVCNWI
# UniProt P41144, whole entry: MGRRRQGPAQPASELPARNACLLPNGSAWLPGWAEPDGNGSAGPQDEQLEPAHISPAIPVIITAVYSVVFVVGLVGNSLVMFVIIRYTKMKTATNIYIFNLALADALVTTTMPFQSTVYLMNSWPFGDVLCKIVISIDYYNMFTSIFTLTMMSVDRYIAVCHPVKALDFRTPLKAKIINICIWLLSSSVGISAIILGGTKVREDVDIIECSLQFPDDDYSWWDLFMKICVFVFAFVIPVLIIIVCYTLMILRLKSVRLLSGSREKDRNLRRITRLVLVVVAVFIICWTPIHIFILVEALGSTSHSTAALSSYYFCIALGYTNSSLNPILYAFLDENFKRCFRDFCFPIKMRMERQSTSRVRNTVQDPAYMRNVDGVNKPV
# How the values were obtained:
# [1] = target: Opioid receptors; mu & delta (Homo sapiens) (UniProt P41143+P35372); assay: Ratio of binding affinities (Mu/Delta)
# [2] = target: Mu-type opioid receptor (Cavia porcellus) (UniProt P97266); assay: [35S]GTP-gamma-S, induced maximal stimulation ( E max ) against Mu opioid receptor in guinea pig caudate membranes blocked with 6000 nM CTAP
# [3] = target: Mu-type opioid receptor (Cavia porcellus) (UniProt P97266); assay: [35S]GTP-gamma-S, induced maximal stimulation ( E max )against Mu opioid receptor in guinea pig caudate membranes in unblocked condition
# [4] = target: Kappa-type opioid receptor (Cavia porcellus) (UniProt P41144); assay: [35S]GTP-gamma-S, induced maximal stimulation ( E max )against Kappa opioid receptor in guinea pig caudate membranes blocked with 6 nM nor-BNI
Structure (SMILES),Ratio [1],Emax [2],Emax [3],Emax [4]
C=CCN1CC[C@H](N(c2ccccc2)c2ccc(C(=O)N(CC)CC)cc2)[C@@H](C)C1,13,,,
C=CCN1CC[C@H](N(c2ccccc2)c2ccc(C(=O)N(CC)CC)cc2)C(C)C1 (stereo not given in full),,55,63,60
C=CCN1CC[C@H](N(c2ccccc2)c2ccc(C(=O)N(CC)CC)cc2)[C@H](C)C1,102,,,
